Laboratory results from patent publication US7737141B2, “Prodrug of cinnamide compound” (Eisai R&D Management Co., Ltd., priority 2006, dated 2010).

Experiment: Solubility test: apparent solubility in test solutions, HPLC-UV
Assay type: physicochemical
Experimental: Several milligram of each compound to be tested was precisely weighed, and 0.1 to 1.3 mL of the following test solutions were each added to the compound. The resulting mixture was stirred for several tens of seconds to several minutes for dispersing or dissolving the compound. Then, the supernatant was collected by centrifugation or filtration through a membrane. The concentration of the compound in the supernatant was quantitatively measured by an HPLC-UV method as an apparent solubility of the compound to each test solution.
pH 5: Diluted Mcllvaine buffer solution (KANTO Chemical Co. Inc.)
pH 7: GIBCO™ Dulbecco's phosphate-buffered saline (Invitrogen Corporation)

For “3-{4-{(S)-4-[(S)-1-(2,6-difluoropyridin-3-yl)ethyl]-6-methyl-3-oxomorpholin-(2Z)-ylidenemethyl}-2-methoxyphenyl}-5-methyl-1-phosphonooxymethyl-3H-imidazol-1-ium chloride [Example 7]”, the “Solubility at pH 5” value (pH 5: Diluted Mcllvaine buffer solution) was greater than 10 mg/mL and the “Solubility at pH 7” value (pH 7: Dulbecco's phosphate-buffered saline) was greater than 10 mg/mL.
